Source: publication PMC6982966 (Molecules, 2019)

Chains of the proteins cited; added tags and fusions are not shown.
UniProt P68400, whole entry: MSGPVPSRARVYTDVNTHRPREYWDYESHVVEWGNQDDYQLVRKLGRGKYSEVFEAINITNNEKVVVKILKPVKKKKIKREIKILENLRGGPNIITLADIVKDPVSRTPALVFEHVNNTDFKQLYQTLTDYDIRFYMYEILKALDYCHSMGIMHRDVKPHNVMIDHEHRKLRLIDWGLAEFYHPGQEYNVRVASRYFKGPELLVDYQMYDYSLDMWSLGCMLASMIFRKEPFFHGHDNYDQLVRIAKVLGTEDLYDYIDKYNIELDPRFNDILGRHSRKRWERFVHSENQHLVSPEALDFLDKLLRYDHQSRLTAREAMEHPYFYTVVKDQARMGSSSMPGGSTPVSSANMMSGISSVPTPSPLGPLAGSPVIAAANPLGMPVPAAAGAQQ

Legend:
human CK2 holoenzyme [1] = target: T1, human CK2 holoenzyme (Homo sapiens, UniProt P68400); assay: biochemical; design: made in house; host or cells: Escherichia coli; settings: newly synthesized indeno[1,2-b]indoles
human CK2 holoenzyme [2] = target: T1, human CK2 holoenzyme; settings: recombinant human CK2; pIC50 = -logIC50; compounds published before; cited from earlier work
[3] = Tested IC50, recombinant human CK2
[4] = Tested pIC50, recombinant human CK2, pIC50 = -logIC50

| SMILES | IC50 (human CK2 holoenzyme [1]; [3]) | IC50 (human CK2 holoenzyme [1]; [4]) | Tested pIC50 (human CK2 holoenzyme [2]) |
| --- | --- | --- | --- |
| CC(C)n1c2c(c3c(O)cccc31)C(=O)c1c(C#N)cccc1-2 [5f] | 2930 nM | 2930 nM | – |
| COc1ccc2c(c1)-c1c(c3c(O)cccc3n1C(C)C)C2=O [5h] | 480 nM | 481 nM | – |
| Cc1cc(O)c2c3c(n(C(C)C)c2c1)-c1ccccc1C3=O [5j] | – | – | 5.8960 |
